The nature of this data set: Solubility in water by UPLC. Type of data set: physicochemical.

As for “(R)-8-chloro-1-methyl-2,3,4,5-tetrahydro-1H-3-benzazepine citrate salt hemihydrate”, the solubility in water worked out at 33.9 mg/mL.

The values are drawn from patent publication US9365521B2, “Non-hygroscopic salts of 5-HT2C agonists” (Arena Pharmaceuticals, Inc., priority 2010, dated 2016).
